Data as given in patent EP0632806B1 (priority 1992, dated 1993).

Columns and labels:
rats = test: Estimated LD50 in rats
mice = test: Estimated LD50 in mice

Compound `CN(C(=O)Cc1cccc2sccc12)[C@@H]1CCCC[C@H]1N1CCCC1` (racemic) has an LD50 (rats) of 32 µmol/kg and an LD50 (mice) of 27 µmol/kg.
